Reference: patent publication US20240092758A1, “IMIDAZOLO INDAZOLE COMPOUNDS AS JAK INHIBITORS” (Theravance Biopharma R&D IP, LLC, priority 2021, published 2024)

Sequences of proteins named here, by UniProt entry; tags and fusion partners are left off.
UniProt O60674, whole entry: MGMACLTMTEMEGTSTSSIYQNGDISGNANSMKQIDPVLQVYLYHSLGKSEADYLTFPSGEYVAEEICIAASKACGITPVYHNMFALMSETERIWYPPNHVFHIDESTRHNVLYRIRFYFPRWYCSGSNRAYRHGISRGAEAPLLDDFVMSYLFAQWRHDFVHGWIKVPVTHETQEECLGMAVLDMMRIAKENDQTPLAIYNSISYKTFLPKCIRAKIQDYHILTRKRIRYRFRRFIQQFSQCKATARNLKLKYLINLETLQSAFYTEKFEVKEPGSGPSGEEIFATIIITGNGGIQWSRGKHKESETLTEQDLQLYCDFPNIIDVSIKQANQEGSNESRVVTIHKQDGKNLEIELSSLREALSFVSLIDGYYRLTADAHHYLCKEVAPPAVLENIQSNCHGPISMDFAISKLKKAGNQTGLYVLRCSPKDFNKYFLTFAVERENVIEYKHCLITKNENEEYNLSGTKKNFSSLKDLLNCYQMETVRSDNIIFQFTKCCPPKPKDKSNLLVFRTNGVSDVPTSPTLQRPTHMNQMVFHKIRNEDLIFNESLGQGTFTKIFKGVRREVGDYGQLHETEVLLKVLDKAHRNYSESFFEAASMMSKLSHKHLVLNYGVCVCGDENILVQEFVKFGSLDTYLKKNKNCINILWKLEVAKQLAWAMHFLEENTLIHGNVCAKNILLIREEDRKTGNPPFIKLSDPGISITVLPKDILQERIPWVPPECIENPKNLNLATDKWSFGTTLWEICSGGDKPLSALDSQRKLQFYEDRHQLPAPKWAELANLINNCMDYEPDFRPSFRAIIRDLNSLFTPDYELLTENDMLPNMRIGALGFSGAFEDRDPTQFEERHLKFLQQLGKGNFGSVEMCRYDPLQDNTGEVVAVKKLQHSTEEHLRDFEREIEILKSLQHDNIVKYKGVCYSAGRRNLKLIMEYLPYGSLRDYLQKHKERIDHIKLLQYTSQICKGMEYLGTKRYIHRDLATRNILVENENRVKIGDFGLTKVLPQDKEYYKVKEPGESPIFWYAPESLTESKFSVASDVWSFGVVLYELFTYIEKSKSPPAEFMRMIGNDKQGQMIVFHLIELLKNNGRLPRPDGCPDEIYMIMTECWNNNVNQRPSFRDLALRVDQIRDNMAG
UniProt P23458, whole entry: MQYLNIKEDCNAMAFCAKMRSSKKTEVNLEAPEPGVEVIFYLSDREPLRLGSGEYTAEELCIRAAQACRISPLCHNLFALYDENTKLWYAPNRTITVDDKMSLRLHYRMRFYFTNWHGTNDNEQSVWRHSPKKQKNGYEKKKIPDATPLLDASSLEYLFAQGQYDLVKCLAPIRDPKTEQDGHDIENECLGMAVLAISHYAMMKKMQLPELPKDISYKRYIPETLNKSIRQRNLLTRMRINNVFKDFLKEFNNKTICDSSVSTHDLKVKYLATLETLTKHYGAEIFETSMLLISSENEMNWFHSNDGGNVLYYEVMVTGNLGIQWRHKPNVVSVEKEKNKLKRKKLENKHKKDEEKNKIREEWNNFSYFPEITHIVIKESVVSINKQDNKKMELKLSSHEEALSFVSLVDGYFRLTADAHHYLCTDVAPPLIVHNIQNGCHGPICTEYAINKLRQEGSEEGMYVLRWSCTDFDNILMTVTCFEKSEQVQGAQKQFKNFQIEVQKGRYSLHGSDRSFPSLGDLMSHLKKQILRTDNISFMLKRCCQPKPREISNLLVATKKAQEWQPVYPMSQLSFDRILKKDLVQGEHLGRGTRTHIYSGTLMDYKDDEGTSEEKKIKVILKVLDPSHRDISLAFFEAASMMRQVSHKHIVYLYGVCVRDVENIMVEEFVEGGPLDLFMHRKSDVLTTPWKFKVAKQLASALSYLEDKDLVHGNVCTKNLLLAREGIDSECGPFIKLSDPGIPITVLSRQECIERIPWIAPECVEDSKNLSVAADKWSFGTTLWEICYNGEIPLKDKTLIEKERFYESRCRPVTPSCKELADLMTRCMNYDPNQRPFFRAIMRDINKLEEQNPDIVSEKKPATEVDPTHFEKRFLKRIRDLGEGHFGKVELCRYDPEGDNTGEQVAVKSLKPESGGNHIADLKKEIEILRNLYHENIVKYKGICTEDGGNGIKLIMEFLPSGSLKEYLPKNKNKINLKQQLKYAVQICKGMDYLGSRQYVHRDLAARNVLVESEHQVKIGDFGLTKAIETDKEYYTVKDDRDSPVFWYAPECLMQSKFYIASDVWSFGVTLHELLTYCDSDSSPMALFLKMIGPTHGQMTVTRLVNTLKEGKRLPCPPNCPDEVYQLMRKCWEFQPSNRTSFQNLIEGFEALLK

Legend:
JAK2 = JAK2 (Homo sapiens (Human), UniProt O60674); test: Biochemical JAK kinase assay (LanthaScreen), JAK2
Method: (§1) A panel of four LanthaScreen JAK biochemical assays (JAK1, 2, 3 and Tyk2) were carried in a common kinase reaction buffer (50 mM HEPES, pH 7.5, 0.01% Brij-35, 10 mM MgCl2, and 1 mM EGTA). Recombinant GST-tagged JAK enzymes and a GFP-tagged STAT1 peptide substrate were obtained from Life Technologies.
(§2) Serially diluted compounds were pre-incubated with each of the four JAK enzymes and the substrate in white 384-well microplates (Corning) at ambient temperature for 1 h. ATP was subsequently added to initiate the kinase reactions in 10 μL total volume, with 1% DMSO. The final enzyme concentrations for JAK1, 2, 3 and Tyk2 are 4.2 nM, 0.1 nM, 1 nM, and 0.25 nM respectively; the corresponding Km ATP concentrations used are 25 μM, 3 μM, 1.6 μM, and 10 μM; while the substrate concentration is 200 nM for all four assays. Kinase reactions were allowed to proceed for 1 hour at ambient temperature before a 10 μL preparation of EDTA (10 mM final concentration) and Tb-anti-pSTAT1 (pTyr701) antibody (Life Technologies, 2 nM final concentration) in TR-FRET dilution buffer (Life Technologies) was added. The plates were allowed to incubate at ambient temperature for 1 h before being read on the EnVision reader (Perkin Elmer). Emission ratio signals (520 nm/495 nm) were recorded and utilized to calculate the percent inhibition values based on DMSO and background controls.
(§3) For dose-response analysis, percent inhibition data were plotted vs. compound concentrations, and IC50 values were determined from a 4-parameter robust fit model with the Prism software (GraphPad Software). Results were expressed as pIC50 (negative logarithm of IC50) and subsequently converted to pKi (negative logarithm of dissociation constant, Ki) using the Cheng-Prusoff equation.
(§4) Test compounds having a lower Ki value or higher pKi value in the four JAK assays show greater inhibition of JAK activity.

[1] = test system: IL-13 induced STAT6 phosphorylation in BEAS-2B human lung epithelial cells; test: Cellular JAKI potency assay (BEAS-2B); conditions: BEAS-2B cells
Method: The JAKI cellular potency assay was carried out by measuring inhibition of interleukin-13 (IL-13, R&D Systems) induced STAT6 phosphorylation in BEAS-2B human lung epithelial cells (ATCC). BEAS-2B cells were grown at 37° C. in a 5% CO2 humidified incubator in 50% DMEM/50% F-12 medium (Life Technologies) supplemented with 10% FBS (Hyclone), 100 U/mL penicillin, 100 μg/mL streptomycin (Life Technologies), and 2 mM GlutaMAX (Life Technologies). On day 1 of the assay, cells were seeded at a 7,500 cells/well density in white poly-D-lysine-coated 384-well plates (Corning) with 25 μL medium and were allowed to adhere overnight in the incubator. On day 2 of the assay, the medium was removed and replaced with 12 μL of assay buffer (Hank's Balanced Salt Solution/HBSS, 25 mM HEPES, and 1 mg/ml bovine serum albumin/BSA) containing dose-responses of test compounds. Compounds were serially diluted in DMSO and then diluted another 1000-fold in media to bring the final DMSO concentration to 0.1%. Cells were incubated with test compounds at 37° C. for 1 h and followed by the addition of 12 μl of pre-warmed IL-13 (80 ng/mL in assay buffer) for stimulation. After incubating at 37° C. for 30 min, the assay buffer (containing compound and IL-13) was removed, and 10 μL of cell lysis buffer (25 mM HEPES, 0.1% SDS, 1% NP-40, 5 mM MgCl2, 1.3 mM EDTA, 1 mM EGTA, supplemented with Complete Ultra mini protease inhibitors and PhosSTOP from Roche Diagnostics). The plates were shaken at ambient temperature for 30 min before the addition of detection reagents. Levels of pSTAT6 were measured using the AlphaLISA SureFire Ultra pSTAT6 (Tyr641) assay kit from PerkinElmer. For dose-response analysis, percent inhibition data were plotted vs. compound concentrations, and IC50 values were determined from a 4-parameter robust fit model with the Graphpad Prism software. Results are expressed as the negative logarithm of the IC50 value, pIC50.
Test compounds having a lower IC50 value or higher pIC50 value in this assay show greater inhibition of IL-13 induced STAT6 phosphorylation.

JAK1 = JAK1 (Homo sapiens (Human), UniProt P23458); test: Biochemical JAK kinase assay (LanthaScreen), JAK1
Method: as §1, §2, §3, §4

Compound	JAK2 pKi (JAK2)	BEAS2B pIC50 [1]	JAK1 pKi (JAK1)
CCc1cc(O)ccc1-c1ccc2c(-c3nc(C4=CCNC4)c(Br)[nH]3)n[nH]c2c1F	B (B represents a pKi value between 9 (included) and 10 (Ki between 1 nM and 0.1 nM))	C (C represents a pIC50 value between 7 (included) and 7.5)	C (C represents a pKi value between 8 (included) and 9 (Ki between 10 nM and 1 nM))
CCc1cc(O)ccc1-c1ccc2c(-c3nc(C4=C[C@@H](C)N[C@@H](C)C4)c[nH]3)n[nH]c2c1F (relative stereo)	B (B represents a pKi value between 9 (included) and 10 (Ki between 1 nM and 0.1 nM))	C (C represents a pIC50 value between 7 (included) and 7.5)	B (B represents a pKi value between 9 (included) and 10 (Ki between 1 nM and 0.1 nM))
CCc1cc(O)ccc1-c1ccc2c(-c3nc(C4=C[C@@H](C)N[C@H](C)C4)c[nH]3)n[nH]c2c1 (relative stereo)	B (B represents a pKi value between 9 (included) and 10 (Ki between 1 nM and 0.1 nM))	C (C represents a pIC50 value between 7 (included) and 7.5)	B (B represents a pKi value between 9 (included) and 10 (Ki between 1 nM and 0.1 nM))
CCc1cc(O)ccc1-c1ccc2c(-c3nc(C4=C[C@@H](C)N[C@H](C)C4)c[nH]3)n[nH]c2c1F (relative stereo)	B (B represents a pKi value between 9 (included) and 10 (Ki between 1 nM and 0.1 nM))	C (C represents a pIC50 value between 7 (included) and 7.5)	B (B represents a pKi value between 9 (included) and 10 (Ki between 1 nM and 0.1 nM))
